Test results reported in ChEMBL document CHEMBL5150021, “Identification of 5-(Aryl/Heteroaryl)amino-4-quinolones as Potent Membrane-Disrupting Agents to Combat Antibiotic-Resistant Gram-Positive Bacteria” (J Med Chem, 2022).

Assay: Therapeutic index, ratio of CC50 for Cytotoxicity against sheep erythrocytes to MIC for antibacterial activity against methicillin resistant Staphylococcus aureus FPR3757
Assay type: toxicity
Outline: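 Ratio of erythrocyte CC50 to MRSA FPR3757 MIC. For hemolysis, 4% washed sheep erythrocytes were mixed 1:1 with twofold compound dilutions in PBS and incubated 1 h at 37 °C. Supernatant A540 was read after centrifugation and normalized between DMSO and Triton X-100 (100% lysis). Triplicates. Highest concentration tested: 32 μg/mL.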

O=c1cc(C(F)(F)F)[nH]c2cc(C(F)(F)F)cc(Nc3ccc(C(F)(F)F)cn3)c12
selectivity ratio: > 500
